These results are taken from US12145964B2, “Thiophosphorodichloridate reagents for chemoselective histidine bioconjugation” (dated 2024).

By UniProt entry, the sequences of proteins in these tests, tags left out. Residues count along the entry.
UniProt P00698, 19-147 limits assumed: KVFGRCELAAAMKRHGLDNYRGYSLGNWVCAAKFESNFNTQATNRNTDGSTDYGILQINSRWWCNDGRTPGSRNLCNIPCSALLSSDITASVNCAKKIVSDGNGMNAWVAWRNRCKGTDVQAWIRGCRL
UniProt P68082, whole entry, looked up: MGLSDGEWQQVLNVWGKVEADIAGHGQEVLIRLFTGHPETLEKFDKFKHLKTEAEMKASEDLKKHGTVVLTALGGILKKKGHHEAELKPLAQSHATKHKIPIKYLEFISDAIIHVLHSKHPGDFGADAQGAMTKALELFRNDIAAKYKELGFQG
UniProt P61823, 27-150 limits assumed: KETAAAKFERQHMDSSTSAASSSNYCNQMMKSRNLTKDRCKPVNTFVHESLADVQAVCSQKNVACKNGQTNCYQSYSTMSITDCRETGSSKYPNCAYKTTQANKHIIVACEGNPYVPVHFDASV

The test system of one data set is His-tag GFP. Kind of data set: TPAC labelling of His-tag GFP (blots, LC-MS). Particulars: GFP with N-terminal 10×His tag.
The target of the next data set is calmodulin (Sus scrofa, UniProt F2Z5G3). Kind of data set: Protein labelling with TPAC, site selectivity.
A further data set has as its target lysozyme (Gallus gallus, UniProt P00698). Nature of the data set: Protein labelling with TPAC, site selectivity. Particulars: pH 8.5.
The target in a further data set is myoglobin (Equus caballus, UniProt P68082). Kind of data set: Protein labelling with TPAC, site selectivity.
For data set [1], the target named is T1, ribonuclease A (Bos taurus, UniProt P61823). Nature of the data set: Activity of ribonuclease A after TPAC treatment.
The nature of data set [2]: TPAC labeling in HeLa lysates, in-gel fluorescence.
Data set [3] has as its target T1, ribonuclease A. Kind of data set: Protein labelling with TPAC, intact mass spectrometry. Particulars: pH 8.5, 20 μM protein, 2 mM TPAC, 1 h.
The nature of data set [4]: Reaction between phosphorus electrophiles and Fmoc-His-OH. Particulars: for Labeling of Fmoc-His-OH: buffered aqueous solution, 0.5 mM Fmoc-His-OH, 5 mM electrophile, 25 mM HEPES pH 8.5, 20% MeCN, 1h; for Hydrolysis of the resulting histidine product: prolonged incubation at neutral pH.
Data set [5] can be described thus: Reaction of TPAC with mixture of Fmoc-protected amino acids. Particulars: competing Fmoc-protected amino acids, 3 mM TPAC, pH 8.5.
A short description of data set [6]: Stability of TPAC-labelled Fmoc-His-OH (hydrolysis, HPLC).

On to `C#CCOP(=S)(Cl)Cl`, for which, in the data set with His-tag GFP, the “Site of labelling on His-tag GFP” value is on record as “selectively reacts with histidine residues on the His-tag”. Besides, the “Histidine selectivity of labelling” value on calmodulin was “excellent histidine selectivity”. Besides, the Side-reactivity towards lysine result at lysozyme was “Modest side-reactivity towards lysine”. Also, the “Histidine selectivity of labelling” value at myoglobin was “excellent histidine selectivity”. Moreover, the “Loss of activity of ribonuclease A after TPAC treatment” value at ribonuclease A [1] was “negligible loss of activity”. For the same compound, the “Labeling in lysates; effect of pretreatment with electrophiles blocking cysteine, lysine or serine” value in data set [2] was “do not affect the observed TPAC signal”. For the same compound, at ribonuclease A [3], the Doubly-modified protein worked out at 11% and the Singly-modified protein result was “ca. 45%”. In addition, the “Hydrolysis of the reagent itself” value in [4] (aqueous buffer) is on record as “fast hydrolysis”. Further, in data set [4], the “Labeling of Fmoc-His-OH” value is on record as “higher conversion” and the “Hydrolysis of the resulting histidine product” value is reported as “resistant to hydrolysis”. For the same compound, the Yield of bioconjugate in data set [4] (pH 8.5, within twenty minutes) came out at 60%. Besides, in data set [5], the “Reactivity on other nucleophilic amino acids” value is “negligible reactivity”.
With `C#CCOP(=S)(Cl)OC` (centres unmarked), in [4], the “Labeling of Fmoc-His-OH” value is reported as “appreciable labeling” and the “Hydrolysis of the resulting histidine product” value was “significant hydrolysis”.
For `C#CCOP(O)(=S)n1cnc(C[C@H](NC(=O)OCC2c3ccccc3-c3ccccc32)C(=O)O)c1` (some centres unmarked), the Hydrolysis ratio in data set [6] (Dithiothreitol (5 mM), 65 °C, 0.5 h, in PBS) is reported as 1%; in [6] (Formic acid (1M), 25 °C, 1 h, in water) it was 1%; in [6] (Formic acid (1M), 25 °C, 14 h, in water) it was 15%; in data set [6] (HCl (0.2M), 25 °C, 1 h, in water), less than 1%; in [6] (HCl (0.2M), 25 °C, 14 h, in water), 20; in data set [6] (Iodoacetamide (10 mM), 37 °C, 1 h, in PBS), 2%. Besides, the Hydrolysis ratio is less than 1% in data set [6] (NH3 · H2O (1M), 25 °C, 1 h, in water); less than 1% in [6] (NH3 · H2O (1M), 25 °C, 14 h, in water); less than 1% in data set [6] (TCEP (5 mM), 65 °C, 0.5 h, in PBS).
For `[N-]=[N+]=NCCOP(=S)(Cl)Cl`, in data set [4], the “Labeling of Fmoc-His-OH” value is reported as “comparable reactivity”.
Regarding `C#CC(C)OP(=S)(Cl)Cl` (racemic), the “Labeling of Fmoc-His-OH” value in data set [4] is “comparable reactivity”.
